Ki data for two molecules are collected here from BindingDB's records for PubMed 9223589 (University of Tours, 1997).

The chains behind the UniProt entries cited, without tags or fusion partners.
UniProt P23977, whole entry: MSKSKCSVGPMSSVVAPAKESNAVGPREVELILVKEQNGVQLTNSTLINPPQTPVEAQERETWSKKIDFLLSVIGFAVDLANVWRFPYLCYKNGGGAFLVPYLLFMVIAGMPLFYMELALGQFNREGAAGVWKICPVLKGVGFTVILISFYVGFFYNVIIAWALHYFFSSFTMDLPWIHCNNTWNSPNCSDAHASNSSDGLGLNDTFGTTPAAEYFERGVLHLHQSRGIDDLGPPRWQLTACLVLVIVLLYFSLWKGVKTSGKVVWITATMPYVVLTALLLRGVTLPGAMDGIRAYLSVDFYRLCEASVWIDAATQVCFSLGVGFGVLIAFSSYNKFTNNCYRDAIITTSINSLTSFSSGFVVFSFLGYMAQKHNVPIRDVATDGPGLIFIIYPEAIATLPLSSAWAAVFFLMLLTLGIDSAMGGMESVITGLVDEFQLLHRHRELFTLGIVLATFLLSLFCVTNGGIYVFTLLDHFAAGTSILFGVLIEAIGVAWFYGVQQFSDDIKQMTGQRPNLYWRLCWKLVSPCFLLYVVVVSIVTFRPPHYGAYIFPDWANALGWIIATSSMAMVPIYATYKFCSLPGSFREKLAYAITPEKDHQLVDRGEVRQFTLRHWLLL

In the assay the target is Sodium-dependent dopamine transporter (Rattus norvegicus, UniProt P23977).

In the case of `CNCCC(Oc1ccccc1OC)c1ccccc1` (configuration not stated) [3-(2-methoxyphenoxy)-N-methyl-3-phenylpropan-1-amine], the Ki stood at 1 µM.
Regarding `Fc1ccc([C@@H]2CCNC[C@H]2COc2ccc3c(c2)OCO3)cc1` [PAROXETINE], the inhibition constant Ki stood at 1 µM.
